Experimental data: paper PMC7188706 (Cancer Chemotherapy and Pharmacology, 2020)

Assay: Plasma pharmacokinetics and drug monitoring of high-dose, pulsatile sorafenib (LC-MS/MS, non-compartmental)

CNC(=O)c1cc(Oc2ccc(NC(=O)Nc3ccc(Cl)c(C(F)(F)F)c3)cc2)ccn1 [sorafenib]
Cmax week 1, mean (± SD) (Cohort 1, 3 patients, fixed dose week 1 1000 mg): 9089 (± 3281) μg/L | Cmax week 1, mean (± SD) (Cohort 4, 3 patients, fixed dose week 1 2800 mg): 15,200 (± 1266) μg/L
